Apparent affinities of Ab-14 variants for a coronavirus HR2 peptide

The measurements come from Li et al. 2023 (doi:10.1038/s41467-023-39022-2) through the FLAb antibody collection.

Binding partner: SARS-CoV-2 spike HR2 peptide, sequence PDVDLGDISGINAS.

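The starting antibody came from a phage panning campaign against this peptide. Designed CDR sequences, proposed from the first random library and measured here. Group labels follow the data file (Ctrl: baseline library sampled from a position-specific scoring matrix, with some repeated check sequences; En: ensemble of fine-tuned language models; GP: Gaussian process model; HC: hill climbing; Gen: genetic algorithm; Gibbs: Gibbs sampling; a sequence that several methods proposed may carry one label only). The scFvs were displayed on barcoded MATa yeast, the peptide on MATalpha yeast. After mating in shaken culture at 30 °C for 16 h, diploids were selected and their barcode pairs sequenced. Each replicate has its own calibration line, from reference interactions of the BCL2 family. Mating was done six times.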

Parent: Ab-14, a human scFv built as VH, a (GGGGS)3 linker, VL. Only the CDRs of the light chain vary.
VH: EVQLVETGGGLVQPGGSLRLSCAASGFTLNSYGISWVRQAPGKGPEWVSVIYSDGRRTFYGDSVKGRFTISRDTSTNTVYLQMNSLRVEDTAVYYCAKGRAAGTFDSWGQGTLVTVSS
VL: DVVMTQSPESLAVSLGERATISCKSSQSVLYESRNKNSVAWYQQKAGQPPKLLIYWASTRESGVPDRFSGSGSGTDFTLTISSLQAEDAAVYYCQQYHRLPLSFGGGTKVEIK

The whole VL of each variant is written out. Affinities are written as log10 Kd with Kd in nM; a lower number is a better binder. Averages over replicates are reported, and they cover detected replicates only. Values of this round are not directly comparable with the first-round values of the same sequences. Empty control strains, which show no peptide, gave a signal in 4% of pairings with all light chain designs; the median was 2.64 and 95% of these signals were weaker than 1.59. No background was subtracted. The authors averaged sequences with at least three values out of six and counted those with two or fewer as poor binders.

VL	group	log10 Kd (nM), mean	seen in
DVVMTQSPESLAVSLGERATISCKLSISGLHETIDKKSIAWYQQKAGQPPKLLIYERSTRENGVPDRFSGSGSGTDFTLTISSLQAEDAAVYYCQQYHRLPLSFGGGTKVEIK	En_HC	0.44	6 of 6
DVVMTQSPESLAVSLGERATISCTLGDVTRMESNKKSSIAWYQQKAGQPPKLLIYDMSNRADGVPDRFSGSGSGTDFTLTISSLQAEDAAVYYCQQYHRLPLSFGGGTKVEIK	En_HC	0.32	6 of 6
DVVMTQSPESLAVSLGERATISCKLSQSQLYESRNKNSVAWYQQKAGQPPKLLIYEASTRCSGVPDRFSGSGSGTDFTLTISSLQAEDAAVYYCQQYHRLPLSFGGGTKVEIK	GP_Gen	-0.06	6 of 6
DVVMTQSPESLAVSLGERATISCKSSQSVLYESENKNSVAWYQQKAGQPPKLLIYWASHRESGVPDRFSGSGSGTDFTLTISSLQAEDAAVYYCQQYHRLPLSFGGGTKVEIK	Ctrl	1.11	6 of 6
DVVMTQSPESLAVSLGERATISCKSSQSVLYESRNKNSVAWYQQKAGQPPKLLIYWASTRESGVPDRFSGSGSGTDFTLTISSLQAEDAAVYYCQQYHRPPLSFGGGTKVEIK	Ctrl	1.71	1 of 6
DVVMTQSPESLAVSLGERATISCKLYNSHLYESRQKNSVAWYQQKAGQPPKLLIYWASTRESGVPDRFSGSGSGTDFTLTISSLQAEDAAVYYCQQYHRLPLSFGGGTKVEIK	GP_HC	1.83	6 of 6
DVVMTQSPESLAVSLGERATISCHISQSVGMTSFHKNSVAWYQQKAGQPPKLLIYENSTREDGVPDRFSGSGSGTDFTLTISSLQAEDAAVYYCQQYDRLPLSFGGGTKVEIK	En_HC	1.36	6 of 6
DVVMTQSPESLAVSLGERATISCRVQINSGHSDMHWKSIAWYQQKAGQPPKLLIYSASIRASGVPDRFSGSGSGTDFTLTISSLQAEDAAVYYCQQYARLPLEFGGGTKVEIK	En_Gibbs	1.01	6 of 6
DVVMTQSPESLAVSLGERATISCKSSQSVLYESRNKNSVAWYQQKAGQPPKLLIYWASTRESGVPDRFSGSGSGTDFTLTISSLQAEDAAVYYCQQYHRLPLHFGGGTKVEIK	Ctrl	2.31	3 of 6
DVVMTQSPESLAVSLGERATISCKLSQSVLYESRNKNSVAWYQQKAGQPPKLLIYNASQREVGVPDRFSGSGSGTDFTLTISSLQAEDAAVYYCQQYHRLPLSFGGGTKVEIK	GP_Gen	0.46	6 of 6
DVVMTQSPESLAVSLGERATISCKLSQSVLYEQRNKNSVAWYQQKAGQPPKLLIYNASQRLSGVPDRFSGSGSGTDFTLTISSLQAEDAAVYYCQQYHRLPLSFGGGTKVEIK	GP_Gen	0.05	6 of 6
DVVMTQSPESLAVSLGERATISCMVNGIMDHLSKNSNNVAWYQQKAGQPPKLLIYETETRNAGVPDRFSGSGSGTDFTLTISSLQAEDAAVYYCQQYDRLPLSFGGGTKVEIK	En_Gen	0.98	6 of 6
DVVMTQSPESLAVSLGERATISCQLEFRDVQGTANWHAIAWYQQKAGQPPKLLIYEGSQLGQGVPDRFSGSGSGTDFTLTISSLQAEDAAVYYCQQYFHLPLGFGGGTKVEIK	En_Gibbs	0.94	6 of 6
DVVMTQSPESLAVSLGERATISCKLSQSVLYESRLKNSVAWYQQKAGQPPKLLIYGASTRESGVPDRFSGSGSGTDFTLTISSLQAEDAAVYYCQQYHRLPLSFGGGTKVEIK	GP_Gen	0.64	6 of 6
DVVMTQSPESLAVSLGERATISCKVSIEVWMGDRNKNSVAWYQQKAGQPPKLLIYDASTRESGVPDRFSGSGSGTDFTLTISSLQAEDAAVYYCQQYHRLPLSFGGGTKVEIK	GP_Gibbs	0.11	6 of 6

The first 2 entries again:

VL	group	log10 Kd (nM), mean	seen in
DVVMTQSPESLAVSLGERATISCKLSISGLHETIDKKSIAWYQQKAGQPPKLLIYERSTRENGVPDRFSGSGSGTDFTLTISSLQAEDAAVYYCQQYHRLPLSFGGGTKVEIK	En_HC	0.44	6 of 6
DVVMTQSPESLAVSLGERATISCTLGDVTRMESNKKSSIAWYQQKAGQPPKLLIYDMSNRADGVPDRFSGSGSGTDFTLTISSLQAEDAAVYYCQQYHRLPLSFGGGTKVEIK	En_HC	0.32	6 of 6